# Compound activity as filed in PubChem.
# Rows were chosen to be rich in hits. Some 0.46% of all compounds tested hit in one or more screens of this group.
# GIV Gai3 FP = inhibitors of GIV GBA-motif binding to rat Galpha-i3; percent of control (FP), % (concentration not given with the values); AID 1224905; Galpha-i3/FITC-GIV peptide fluorescence polarization, 90 min; stronger effect = lower value; scaled: aluminum fluoride 0%, vehicle 100%; 210,000 compounds, 0.42% hits; P08753;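 active means replicate mean at 85% of control or lower, very high polarization wells dropped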;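 further: wells of about 15 µL received 100 nL stock; the first replicate is given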
# HCMV NEC inh = disrupts HCMV UL50-UL53 complex binding. HTRF UL50-UL53 interaction, normalized percent inhibition. inhibition, % (concentration not given with the values). actives 0.15% (n = 190,000). AID 1918969; in the data active = inhibition above about 27%, passing the limit was not always enough
# * marks the source's active call; other numbers are inactive results; nt = no result.
Structure,GIV Gai3 FP,HCMV NEC inh
CN1c2ccccc2Oc2nnc(N3CCN(Cc4ccccc4)CC3)cc21,104,-40
CN1c2ccccc2Oc2nnc(Cl)cc21,104,105*
CC1CCCC(C)N1C(=O)CN1CCC(O)(c2ccccc2)CC1 (stereo unspecified),104,5
CC(C)c1ccc(S(=O)(=O)N2CCN(c3nc4ccccc4n4cccc34)CC2)cc1,103,-17
CN(C)c1ccc(N=Cc2nc(-c3ccccc3)oc2OC(=O)c2ccccc2)cc1,nt,-30
CN(C)c1ccc(N=Cc2nc(-c3ccccc3)oc2O)cc1,-24*,nt
O=C1/C(=C/c2cc([N+](=O)[O-])cc(Br)c2O)SC(=S)N1c1ccc([N+](=O)[O-])cc1,106,-19
O=C(O)CN1C(=O)/C(=C\c2cc([N+](=O)[O-])cc(Br)c2O)SC1=S,-59*,-78
COc1ccc(-n2c(C)nsc2=NC(=Nc2ccc(C)cc2)c2ccccc2)cc1,105,nt
CN1/C(=C/C=C/c2oc3ccccc3[n+]2C)Oc2ccccc21,-5.9*,nt
CCOc1cc(C#N)c(NC(=O)Cc2cccs2)cc1OCC,100,-22
C=CCSc1nc(O)c(CC)c(=O)n1-c1ccccc1,101,9
CC(C)c1ccc(S(=O)(=O)Nc2cc(C(=O)O)cnc2N(C)C)cc1,75*,-24
CC(C)Cc1ccc(S(=O)(=O)Nc2cc(C(=O)O)cnc2N(C)C)cc1,101,-20
COc1cc(OC)cc(-c2nc3ccccc3c(=O)n2OC(=O)c2cc(Cl)ccc2OC)c1,103,11
COc1ccccc1C(=O)On1c(C)nc2ccccc2c1=O,98,31*
CCOC(=O)c1oc2ccc(OCC)cc2c1C,nt,-9
CCOc1ccc(-c2nc3ccc(-c4nc5ccc(N6CCN(C)CC6)cc5[nH]4)cc3[nH]2)cc1,nt,75*
CCOc1ccc(NS(=O)(=O)c2ccc3nc(-c4ccccc4)[nH]c3c2)cc1,106,-14
CN(C)S(=O)(=O)N1CCN(C(=O)c2ccco2)CC1,100,-9
Cc1ccc(/C=C2\CC/C(=C\c3ccc(C)o3)C2=O)o1,-75*,nt
Cc1ccc(/C=C2/CC(C)C/C(=C\c3ccc(C)o3)C2=O)o1 (stereo unspecified),206,-2
Cc1c(N2C(=O)/C(=C/c3ccc(Br)cc3)SC2=S)c(=O)n(-c2ccccc2)n1C,104,nt
CN(C)/C=C1\SC(=S)N(c2ccc(Br)cc2)C1=O,-65*,-104
Cc1cccc(NC(=O)CSc2nc3c(c(-c4ccco4)c2C#N)CCCC3)c1C,110,nt

# Following part.
Structure,GIV Gai3 FP,HCMV NEC inh
CCCOc1ccc(C2CC(=O)Nc3c2c(C)nn3-c2ccc3nnc(C)n3n2)cc1OCC (stereo unspecified),105,nt
CCCCOc1ccc(C2CC(=O)Nc3c2c(C)nn3-c2ccc3nnc(C)n3n2)cc1OCC (stereo unspecified),75*,nt
CC1Cc2ccc(F)cc2CN1C(=O)c1ccc(COc2ccccc2Br)o1 (stereo unspecified),104,nt
CCOc1ccc(C(=O)c2[nH]c(=O)c3ccccc3c2O)cc1,89,61*
CCOc1ccc(C(=O)c2cccs2)cc1,99,-9
COc1cc(/C=C2/C(=O)N(c3ccccc3)N=C2C)ccc1OS(=O)(=O)c1ccccc1[N+](=O)[O-],106,-34
CCOc1cc(/C=C2/C(=O)N(c3ccccc3)N=C2C)ccc1OS(=O)(=O)c1ccccc1,104,60*
Cc1ccc(/C=C2/SC(=S)N(c3ccc(S(N)(=O)=O)cc3)C2=O)o1,nt,-14
Cc1ccc(/C=C2\SC(=O)NC2=S)o1,46*,-55
COc1cc(CN2CCCN(C)CC2)cc(OC)c1OC,98,6
Cc1ccc(N2C(=O)NC(=O)/C(=C\c3ccc(O)c(Br)c3)C2=O)cc1,110,-3
Cc1ccc(N2C(=O)NC(=O)/C(=C/c3cc(Br)c(O)cc3O)C2=O)cc1,-71*,-44
Cc1ccc2[nH]c(C)c(C(O)CN3CCN(c4ccccc4)CC3)c2c1 (stereo unspecified),102,-12
Cc1ccc(C(=O)OCC(N)=O)cc1C,nt,-3
CCOC(=O)c1c(-c2cccs2)csc1/N=C/c1c(O)n(C)c2ccccc12,44*,nt
CCOC(=O)c1c(-c2cccs2)csc1NC=O,107,nt
CCOC(=O)c1c(/N=C/c2c(O)n(C)c3ccccc23)sc(C)c1C,52*,nt
CCOC(=O)c1c(/N=C/c2c(O)n(C)c3ccccc23)sc2c1CCC2,111,nt
CC(C)=C(/C(C)=N/O)c1ccc(N(C)C)cc1,96,-5
COc1ccc(-c2nc3ccccc3s2)cc1NC(=O)c1ccccc1Cl,95,-21
CC(C)Nc1nc2c(S(=O)(=O)c3ccccc3)nnn2c2ccsc12,101,37*
CCc1ccc(S(=O)(=O)c2nnn3c2nc(NC(C)C)c2sccc23)cc1,102,nt
Nc1ccc2c3c(cccc13)C(=O)C=C2,-30*,57*
NS(=O)(=O)c1ccc2c3c(cccc13)C(=O)N2,nt,-70

# Fetched by compound from the list above (two):
Structure,GIV Gai3 FP,HCMV NEC inh
CCCOc1ccc(C2CC(=O)Nc3c2c(C)nn3-c2ccc3nnc(C)n3n2)cc1OCC (stereo unspecified),105,nt
Cc1ccc(N2C(=O)NC(=O)/C(=C\c3ccc(O)c(Br)c3)C2=O)cc1,110,-3

# Not a retest: 3 of the compounds above.
Structure,GIV Gai3 FP,HCMV NEC inh
CCCOc1ccc(C2CC(=O)Nc3c2c(C)nn3-c2ccc3nnc(C)n3n2)cc1OCC (stereo unspecified),105,nt
CCCCOc1ccc(C2CC(=O)Nc3c2c(C)nn3-c2ccc3nnc(C)n3n2)cc1OCC (stereo unspecified),75*,nt
CC1Cc2ccc(F)cc2CN1C(=O)c1ccc(COc2ccccc2Br)o1 (stereo unspecified),104,nt
